Experimental data taken from IntAct's records for PubMed 29236692.

B1: Eukaryotic translation initiation factor 4E-binding protein 1 (Homo sapiens), Q13541 (parent)
chain: MSGGSSCSQTPSRAIPATRRVVLGDGVQLPPGDYSTTPGGTLFSTTPGGTRIIYDRKFLMECRNSPVTKTPPRDLPTIPGVTSPSSDEPPMEASQSHLRNSPEDKRAGGEESQFEMDI

Variants of: B1
Settings: with rptor_human RPTOR

Q: For F114A, which “effect of a mutation on the interaction” value is on record?
A: disrupting interaction strength

Q: S112A was tested. Which “effect of a mutation on the interaction” value did it give?
A: decreasing interaction strength

Q: E111A was tested. Which “effect of a mutation on the interaction” value did it give?
A: with no effect

Q: Which “effect of a mutation on the interaction” value does the source give for I118A here?
A: decreasing interaction strength

Q: With D117A as the variant, how does the “effect of a mutation on the interaction” value read?
A: decreasing interaction strength

Q: For Q113A, which “effect of a mutation on the interaction” value is on record?
A: disrupting interaction strength

Q: With E115A as the variant, how does the “effect of a mutation on the interaction” value read?
A: with no effect

Q: Which “effect of a mutation on the interaction” value does the source give for M116A here?
A: disrupting interaction strength
